For this data set, the system named is human colon carcinoma (HT29). The data set can be described thus: Antitumor activity on human colon carcinoma (HT29) transplanted in nude mice. Particulars: for Tox: HT29 sc in nude mice, iv q4dx8. On the procedure: Tumor fragment were implanted sc. Treatment started when tumor was palpable. TI % (tumor inhibition %) was calculated at day 46.

For the substance “copolymer of N-(2-hydroxypropyl)methacrylamide, {7-ethyl-10-hydroxy-20-O-[N-methacryloyl-glycyl-L-phenylalanyl-L-leucyl-glycyl]camptothecin} and N-(2-hydroxypropyl)methacryloylglycinamide [A1]”, the “toxicity (in words)” value (HT29 in nude mice, i.v. route, all tested doses) is reported as “non toxic”. Further, the Tox by setting is: (dose 5 mg/kg, total dose 40 mg/kg) 0/7; (dose 10 mg/kg, total dose 80 mg/kg) 0/7; (dose 20 mg/kg, total dose 160 mg/kg) 0/7.
